Measured affinities in a library of Ab-14 heavy chain variants

Source: Li et al. 2023 (doi:10.1038/s41467-023-39022-2), MIT Lincoln Laboratory and A-Alpha Bio; data file from the FLAb repository.

The target is the same throughout: PDVDLGDISGINAS, from the HR2 region of SARS-CoV-2 spike.

Each scFv is VH, a 15-residue (Gly4Ser)3 linker, VL, as in the parent Ab-14, and differs from it in the CDRs of the heavy chain only.
VH: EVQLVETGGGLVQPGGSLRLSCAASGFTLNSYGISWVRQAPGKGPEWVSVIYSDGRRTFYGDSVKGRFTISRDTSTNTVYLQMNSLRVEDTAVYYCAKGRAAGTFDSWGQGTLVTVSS
VL: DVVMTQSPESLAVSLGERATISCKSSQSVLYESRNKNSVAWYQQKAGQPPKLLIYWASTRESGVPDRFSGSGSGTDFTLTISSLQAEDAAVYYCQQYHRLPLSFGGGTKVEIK

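The starting antibody came from a phage panning campaign against this peptide. The variants were designed computationally from a first round of random CDR variants and then made and measured. Group labels follow the data file (Ctrl: baseline library sampled from a position-specific scoring matrix, with some repeated check sequences; GPLM: also part of the Gaussian process libraries; Gen: genetic algorithm; a sequence that several methods proposed may carry one label only). In AlphaSeq, yeast of one mating type display the scFv and yeast of the other type display the target. Pairs that bind mate more often; barcode pairs of the diploids are counted by sequencing. Each replicate has its own calibration line, from reference interactions of the BCL2 family. Mating was done six times.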

The parent's heavy chain CDRs are GFTLNSYGIS, VIYSDGRRTFYGDSVK, GRAAGTFDS; each variant's own CDRs replace them letter for letter.
The read-out is the apparent dissociation constant on a log10 scale (nM): the lower, the stronger.
Averages over replicates are reported, and they cover detected replicates only.
"ND" marks a missing value. The strain was present, yet no cells mated with the target were sequenced in that replicate, which points to weak or no binding.
Values of this round are not directly comparable with the first-round values of the same sequences.

| CDR-H1 | CDR-H2 | CDR-H3 | group | log10 Kd, replicates | mean, log10 nM | empty controls |
|---|---|---|---|---|---|---|
| GFDLNEYGYS | VIYSDGRRTAYGDEVK | GRAAGTINS | Ctrl | 1.66 / 1.77 / 0.70 / 0.62 / 1.69 / 0.70 | 1.19 | 0 of 18 |
| GFNLNSYGIS | VIYSDGRRTFYIDSVS | GRAAWTFDS | Ctrl | ND / ND / ND / ND / ND / ND | ND | 0 of 18 |
| GETLNSYGIS | VIYSDGRRTFYLDSVR | GRAAGTFDS | Ctrl | ND / 1.06 / ND / ND / ND / ND | 1.06 | 0 of 18 |
| GFTLNSYGIS | VIYSDGRRTFYDDSVA | GRAAGTFDS | Ctrl | 2.71 / 1.71 / 1.49 / 1.53 / 1.67 / 1.82 | 1.82 | 2 of 18 (2.13) |
| GFTLNSYGIS | VTYSDGRRTFYSDSYK | GRAAGTFKS | Ctrl | ND / ND / ND / ND / ND / ND | ND | 0 of 18 |
| GFVINSYGIS | VIYSDGRRTFYGDNVK | GRAAGTFDS | Ctrl | 2.02 / ND / 2.33 / ND / 1.34 / 1.56 | 1.81 | 0 of 18 |
| GNTLNSYGIS | VIYADGRRTMYGDSVK | GRAAGTFDS | Ctrl | 0.61 / 0.75 / ND / ND / 0.25 / 1.45 | 0.77 | 0 of 18 |
| GFTLNSYGIS | VIYSDGRRTFYNDSVK | GEAAGTFNS | Ctrl | ND / ND / ND / ND / ND / ND | ND | 0 of 18 |
| GFTLNSYGIS | VIYSDGLRTFYSDSVK | GYHAGTFDS | Ctrl | 0.36 / 0.88 / 0.37 / 0.00 / 0.59 / 0.63 | 0.47 | 1 of 18 (3.02) |
| GFTLNEYGIS | VIYSDGRRTFYGDSVY | GRAIGRFDS | Ctrl | ND / ND / ND / ND / ND / ND | ND | 0 of 18 |
| GFTLNSYGIS | VIYSDGRRTFYGDSVK | GQQAGTFTS | Ctrl | ND / ND / ND / ND / ND / ND | ND | 0 of 18 |
| GETLNMYGIS | VIYSDGRRTFYGDSVK | GTAAGTFDS | Ctrl | 3.74 / 2.66 / 4.17 / 1.77 / 1.41 / 1.78 | 2.59 | 1 of 18 (2.26) |
| GFTLNSYGIS | VIYSDGKRTFYIDSVK | GRDKGTFSS | Ctrl | ND / ND / ND / ND / ND / 0.50 | 0.50 | 0 of 18 |
| GENLSDYGIS | VIYSDGRRTFYGDDVK | GRRAHTFDT | Ctrl | ND / ND / ND / 2.03 / ND / ND | 2.03 | 1 of 18 (2.34) |
| GFTLNSYGIS | VIYSDGRRTAYGDSVK | GRAAGTFES | Ctrl | ND / ND / 1.04 / 1.99 / 2.14 / 2.08 | 1.81 | 0 of 18 |
| GFHLNSYGIT | VIYSDGRRTFYGDSVK | GRAAGTFDS | Ctrl | ND / ND / ND / ND / ND / ND | ND | 0 of 18 |
| GFWLRQYGIS | VIYADGRRTIYGDSVK | GSAAGTFDS | Ctrl | 0.48 / 0.68 / 1.09 / 0.78 / 0.65 / 1.74 | 0.90 | 1 of 18 (2.32) |
| GFTLNEYGIS | VIYSDGHRTFYGDSVK | GRAAGTFDS | Ctrl | 0.26 / 0.83 / 0.16 / 1.01 / 0.55 / 1.15 | 0.66 | 0 of 18 |
| RFTLDEYGIS | VIYSDGRRTFYGDSVK | GRIAGTFDS | Ctrl | 1.60 / 1.07 / 0.25 / ND / 2.28 / ND | 1.30 | 0 of 18 |
| GDTLNSYGIS | VIYFDGRRTFYGDSVK | GRAQGTDDP | Ctrl | ND / ND / ND / ND / ND / ND | ND | 0 of 18 |
| QDTLNSYGIS | VIYSDGRRTFYEDSVK | GRAAATFDS | Ctrl | ND / ND / ND / ND / ND / ND | ND | 1 of 18 (1.37) |
| GFTLNSYGIS | VIYSDGRRTFYGDSVK | GRAAGTFLS | Ctrl | 0.40 / -0.07 / 2.10 / -0.04 / -0.63 / -0.28 | 0.25 | 0 of 18 |
| GFTLNSYGIS | VIYSDGRRTFYINSVK | GREAGTFDS | Ctrl | ND / ND / ND / ND / ND / ND | ND | 0 of 18 |
| GFTLNEYGIS | VIYSDGRKTFYGDSVK | GRAAGTFPS | Ctrl | ND / ND / ND / ND / ND / ND | ND | 0 of 18 |
| GFTLNSYGIS | VIYSDGRRTAYIGSVA | GLAAGEFDS | Ctrl | ND / ND / ND / ND / ND / ND | ND | 0 of 18 |
| GFTLNSYGIS | VIYSDGRRTSYGQSVK | GRNAGTFDQ | Ctrl | ND / ND / 1.97 / 1.03 / ND / ND | 1.50 | 0 of 18 |
| GFTLESYGIS | VIYSDGRRTFYGDSVK | GRAAGTFSQ | Ctrl | 2.61 / 2.38 / ND / 2.31 / 2.35 / 2.89 | 2.51 | 0 of 18 |
| GFDLNSYGIS | VIYSDGRRTFYSDSVK | LRAAGTFDS | Ctrl | 3.10 / 2.01 / 2.59 / 4.69 / 1.97 / 2.35 | 2.78 | 2 of 18 (2.55) |
| GNTLNSYGIS | VIYSDGYRTHYGDSVR | GSAAGTFDS | Ctrl | ND / ND / ND / ND / 1.08 / ND | 1.08 | 0 of 18 |
| GFDLNSYGIS | VDYSDGRRTFYTDSVS | GRNATTFDS | Ctrl | ND / ND / ND / ND / ND / ND | ND | 0 of 18 |
| GYTLNSYGIS | VIYSDGRRTFYGDSFK | GRAAGTFDS | Ctrl | ND / ND / ND / ND / ND / ND | ND | 0 of 18 |
| GFEINSYGIS | VIYADGRRTFYGDSVK | GEAAGTFDM | Ctrl | 0.51 / 0.39 / 0.23 / 0.52 / 0.28 / 0.42 | 0.39 | 0 of 18 |
| GTTLNSYGIS | VIYSDGRRTFYGDSVK | GAVAGTFDS | Ctrl | 1.28 / 0.75 / 0.93 / 1.24 / 0.96 / 1.53 | 1.12 | 2 of 18 (2.17) |
| GESLNSYGIS | VIYSDGRRTFYGDSVK | LKAAGTFDS | Ctrl | ND / ND / ND / ND / ND / ND | ND | 0 of 18 |
| GFTLNEYGIS | VIYSDGRRTFYADSVK | GRAAGTFDW | Ctrl | 1.60 / ND / 2.46 / 2.26 / 2.33 / 2.85 | 2.30 | 1 of 18 (1.86) |
| GFTLNSYGIS | VIYSDGRRTAYGDKVK | GRAAGTFDS | Ctrl | 1.12 / 1.22 / 1.02 / 2.32 / 1.58 / 1.24 | 1.42 | 0 of 18 |
| GFTLNSYGIS | VIYSDGFRTFYGDSVK | GWAAGTFDS | Ctrl | ND / ND / ND / ND / ND / ND | ND | 1 of 18 (0.71) |
| GFTLNSYGIS | VIYSDGRRTFYGDSVK | FRAAGGFDS | Ctrl | ND / ND / 2.90 / ND / ND / ND | 2.90 | 1 of 18 (2.02) |
| GFTLNSYGIS | VIYLDGRRLFYSDSVK | GRAAGTFDS | Ctrl | ND / ND / ND / ND / ND / ND | ND | 0 of 18 |
| GVTLNSYGIS | VIYSDGRRTFYGDSVK | GRAAGTFDS | Ctrl | ND / ND / ND / ND / ND / ND | ND | 1 of 18 (1.70) |
| GETLNSYGIS | VIYSDGIRTFYGDSVK | GENAGTFDS | Ctrl | ND / 1.77 / 2.59 / 1.50 / 1.60 / 1.51 | 1.79 | 0 of 18 |
| GFTLNSYGIS | VIYSDGRRTSYGDDVK | GNLAGEFAM | Ctrl | ND / ND / ND / ND / ND / ND | ND | 1 of 18 (1.08) |
| GFTLNSYGIS | VIYSDGRRTFYGDSVR | QRAAGTFDS | Ctrl | ND / ND / ND / ND / ND / ND | ND | 0 of 18 |
| GFNLNSYGIS | VIYSDGRRTFYGDSVK | GRLALTFDS | Ctrl | ND / ND / ND / ND / ND / ND | ND | 0 of 18 |
| GFTLNSYGIS | VIYSDGRRTSYGDSVK | GRAAGTFDH | Ctrl | ND / ND / ND / ND / ND / ND | ND | 0 of 18 |
| GFTLNSYGIS | VIYADGRRTFYGDSVK | GEAAGTFDS | Ctrl+GPLM_Gen | -0.13 / -0.39 / -0.21 / 0.34 / -0.51 / -0.23; 0.03 / -0.75 / -0.88 / -1.03 / -1.15 / -0.67 | -0.47 | 0 of 36 |
| GFTLGSYGIS | VIYSDGRRTFYGDSVK | ERNSGTFVS | Ctrl | ND / ND / ND / ND / ND / ND | ND | 0 of 18 |
| GFTLNMYGIS | VIYSDGRRTFYGDSVS | GRAAGTFDS | Ctrl | ND / ND / ND / 1.66 / ND / ND | 1.66 | 0 of 18 |

The last 7 entries again:

| CDR-H1 | CDR-H2 | CDR-H3 | group | log10 Kd, replicates | mean, log10 nM | empty controls |
|---|---|---|---|---|---|---|
| GFTLNSYGIS | VIYSDGRRTSYGDDVK | GNLAGEFAM | Ctrl | ND / ND / ND / ND / ND / ND | ND | 1 of 18 (1.08) |
| GFTLNSYGIS | VIYSDGRRTFYGDSVR | QRAAGTFDS | Ctrl | ND / ND / ND / ND / ND / ND | ND | 0 of 18 |
| GFNLNSYGIS | VIYSDGRRTFYGDSVK | GRLALTFDS | Ctrl | ND / ND / ND / ND / ND / ND | ND | 0 of 18 |
| GFTLNSYGIS | VIYSDGRRTSYGDSVK | GRAAGTFDH | Ctrl | ND / ND / ND / ND / ND / ND | ND | 0 of 18 |
| GFTLNSYGIS | VIYADGRRTFYGDSVK | GEAAGTFDS | Ctrl+GPLM_Gen | -0.13 / -0.39 / -0.21 / 0.34 / -0.51 / -0.23; 0.03 / -0.75 / -0.88 / -1.03 / -1.15 / -0.67 | -0.47 | 0 of 36 |
| GFTLGSYGIS | VIYSDGRRTFYGDSVK | ERNSGTFVS | Ctrl | ND / ND / ND / ND / ND / ND | ND | 0 of 18 |
| GFTLNMYGIS | VIYSDGRRTFYGDSVS | GRAAGTFDS | Ctrl | ND / ND / ND / 1.66 / ND / ND | 1.66 | 0 of 18 |

As a blank, each scFv also met three strains without target: over all heavy chain designs, 1% of these pairings were detected, typically at 2.08 and seldom below 0.84. For each scFv, signals with the empty controls are counted beside the result, with their mean in brackets.
The authors' rule: three or more of the six replicates give a measured affinity, fewer mean a poor binder.
Where one sequence has several entries in the source, the replicates are listed entry by entry, parted by semicolons.